Source: patent US10479819B2 (priority 2014, dated 2019)

The chains behind the UniProt entries cited, without tags or fusion partners. Residues count along the entry.
UniProt P47871, 26-477: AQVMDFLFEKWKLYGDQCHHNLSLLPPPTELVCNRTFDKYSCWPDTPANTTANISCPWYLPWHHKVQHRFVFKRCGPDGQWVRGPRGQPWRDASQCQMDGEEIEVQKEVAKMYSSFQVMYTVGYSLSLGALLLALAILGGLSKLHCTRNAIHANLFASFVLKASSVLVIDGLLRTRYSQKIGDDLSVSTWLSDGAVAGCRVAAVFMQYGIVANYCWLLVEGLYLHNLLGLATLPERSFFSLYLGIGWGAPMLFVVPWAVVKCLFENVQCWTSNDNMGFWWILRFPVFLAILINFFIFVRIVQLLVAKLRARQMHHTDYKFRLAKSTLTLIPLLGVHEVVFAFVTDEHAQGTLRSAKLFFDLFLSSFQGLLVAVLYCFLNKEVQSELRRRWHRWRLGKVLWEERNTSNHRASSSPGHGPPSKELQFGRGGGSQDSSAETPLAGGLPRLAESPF
UniProt P43220, 24-463: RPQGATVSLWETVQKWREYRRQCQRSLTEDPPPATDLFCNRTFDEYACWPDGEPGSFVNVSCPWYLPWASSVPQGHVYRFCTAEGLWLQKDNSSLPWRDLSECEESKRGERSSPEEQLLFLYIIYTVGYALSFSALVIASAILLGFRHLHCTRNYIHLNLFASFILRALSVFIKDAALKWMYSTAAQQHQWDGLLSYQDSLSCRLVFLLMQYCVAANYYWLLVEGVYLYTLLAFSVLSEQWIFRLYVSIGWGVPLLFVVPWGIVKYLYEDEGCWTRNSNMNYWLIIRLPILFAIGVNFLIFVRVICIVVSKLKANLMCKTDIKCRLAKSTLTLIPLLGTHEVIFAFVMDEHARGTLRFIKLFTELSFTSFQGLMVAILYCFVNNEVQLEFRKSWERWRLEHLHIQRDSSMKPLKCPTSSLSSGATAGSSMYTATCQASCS

Assays:
human GCGR = biological target: T1, human GCGR (Homo sapiens, UniProt P47871); test: In vitro activity on GCGR, CRE-luciferase HEK-293 cells; assay type: cell-based; conditions: read-out: GCGR (EC50), average EC50, HEK-293 cells expressing human GCGR, 12 hours incubation
T1 construct: expressed in transfected cells
Experimental: (§1) 5000 of HEK-293 cells, which are used in CRE-luciferase system and express human GCGR or GLP-1R stably, were inoculated into 384 well plates according to […] DMEM/10% FBS media/well. […] After incubation, […] of luciferase reagent was added directly to each plate and mixed gently for 2 minutes. The plates were placed into an Elmer Perkin plate reader for reading. Concentration curve of the compound was made by drawing software Prism 5, and the EC50 value was calculated.

[1] = Pharmacokinetic analysis after IV or SC administration in male CD1 mice
Experimental: Pharmacokinetic parameters of the drugs were calculated by methods of model dependence (for data obtained from IV) and model independence (data obtained from SC).

human GLP-1R = biological target: T2, human GLP-1R (Homo sapiens, UniProt P43220); test: In vitro activity on GLP-1R, CRE-luciferase HEK-293 cells; assay type: cell-based; conditions: read-out: GLP-1R (EC50), average EC50, HEK-293 cells expressing human GLP-1R, 12 hours incubation
T2 construct: expressed in transfected cells
Experimental: as §1

Substance: His-Aib-Gln-Gly-Thr-Phe-Thr-Ser-Asp-Lys(PEG2-PEG2-Glu-CO(CH2)14CH3)-Ser-Lys-Tyr-Leu-Asp-Glu-Arg-Arg-Ala-Gln-Asp-Phe-Val-Gln-Trp-Leu-Leu-Asp-Gly-Gly-Pro-Ser-Ser-Gly-Ala-Pro-Pro-Pro-Ser-NH2 [Compound 19]
- EC50 (human GCGR): 560 pM
- clinical adverse effect [1]: no clinical adverse effect
- EC50 (human GLP-1R): 140 pM
